Consider 73 molecules from PubChem BioAssay AID1920062 (Sanford-Burnham Center for Chemical Genomics, 2024).

Protein sequences, listed by entry. Tags and fused reporters are not part of them. Lines headed by an entry give the natural chain unless they say otherwise; changes in a name come on top.
UniProt P20594: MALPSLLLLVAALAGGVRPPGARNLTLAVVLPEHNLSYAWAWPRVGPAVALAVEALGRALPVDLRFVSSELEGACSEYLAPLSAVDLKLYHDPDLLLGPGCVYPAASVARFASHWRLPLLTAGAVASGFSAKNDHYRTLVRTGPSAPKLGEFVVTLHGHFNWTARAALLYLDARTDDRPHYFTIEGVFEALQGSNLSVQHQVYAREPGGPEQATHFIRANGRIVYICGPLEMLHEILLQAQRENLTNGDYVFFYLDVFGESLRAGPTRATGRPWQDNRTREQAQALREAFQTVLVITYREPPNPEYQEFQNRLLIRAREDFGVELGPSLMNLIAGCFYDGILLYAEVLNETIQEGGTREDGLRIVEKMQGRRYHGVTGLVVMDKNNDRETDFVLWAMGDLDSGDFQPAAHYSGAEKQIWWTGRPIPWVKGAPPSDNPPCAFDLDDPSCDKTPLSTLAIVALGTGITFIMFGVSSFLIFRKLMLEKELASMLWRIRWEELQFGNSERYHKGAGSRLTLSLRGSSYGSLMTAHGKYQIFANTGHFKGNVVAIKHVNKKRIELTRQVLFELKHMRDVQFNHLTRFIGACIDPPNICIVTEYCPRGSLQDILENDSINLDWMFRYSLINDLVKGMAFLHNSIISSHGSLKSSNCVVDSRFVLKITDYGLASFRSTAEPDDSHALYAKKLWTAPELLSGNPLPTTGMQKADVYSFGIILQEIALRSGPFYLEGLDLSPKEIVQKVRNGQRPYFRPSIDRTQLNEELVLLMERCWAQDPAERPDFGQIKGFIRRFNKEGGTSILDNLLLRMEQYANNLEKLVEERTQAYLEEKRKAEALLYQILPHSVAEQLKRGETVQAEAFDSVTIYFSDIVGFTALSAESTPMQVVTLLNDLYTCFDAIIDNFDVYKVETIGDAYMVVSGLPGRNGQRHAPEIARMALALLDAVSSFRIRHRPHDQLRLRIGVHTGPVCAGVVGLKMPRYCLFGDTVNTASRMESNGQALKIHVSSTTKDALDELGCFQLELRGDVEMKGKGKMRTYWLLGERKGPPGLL

Molecules are shown by their SMILES. Only a part is listed here, and it is no random draw. Active and inactive are the calls of the source.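 How the source made its calls: active means activation at 10 µM reaching about 35% in either raw or pattern-adjusted values (limit read from the data); inactive means the rest.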

For the assay, the target named is Atrial natriuretic peptide receptor 2 (Homo sapiens) (UniProt P20594). In words: GC-B stimulated cGMP production enhancers – HEK293 GC-B cells, cGMP TR-FRET, EC30 CNP, primary screen (AID 1920062). Conditions: at 10 µM, hits give high values, 0% at EC30 CNP, 100% saturating CNP. On the technique in general: TR-FRET usually uses a lanthanide donor and a delayed reading to cut background.
On to `[N-]=[N+]=NC1CCCCC1NC(=O)c1cc([N+](=O)[O-])cc([N+](=O)[O-])c1` (stereo not drawn), for which the activation was inactive: -5.84%.
The figure for `Cc1ccc(OP(=O)(Nc2ccc([N+](=O)[O-])cn2)Oc2ccc(C)cc2)cc1` is inactive: -1.79%; for `Cc1ccc2nc3c(c(C)c2c1)CC(C(Cl)Cl)S3` (stereo not drawn) it is inactive: -3.77%.
Consider `COc1cc(C(=O)NCC2(N3CCOCC3)CCCCC2)ccc1OCC(C)C`, for which the activation is inactive: 1.76%.
With `O=[N+]([O-])c1ccc(-c2cc([N+](=O)[O-])c(O)c([N+](=O)[O-])c2)cc1`, the activation is inactive: 0.88%.
The figure for `O=[As](O)(c1ccc(O)cc1)c1ccccc1O` is inactive: 1.78%.
For `C[As](=O)(O)c1cccc(C(=O)O)c1`, the activation was inactive: -3.04%.
For the molecule `O=P(Nc1ccccn1)(c1cccc2ccccc12)c1cccc2ccccc12`, the activation is inactive: -15.4%.
As to `Cc1cc(SC(NC=O)C(Cl)(Cl)Cl)ncn1` (stereo not drawn), the activation is inactive: -3.22%.
Next, `O=[N+]([O-])c1ccc(Nc2ccc(Oc3ccc([N+](=O)[O-])cc3[N+](=O)[O-])cc2)c([N+](=O)[O-])c1`: inactive: -3.19%; `CCOC(=O)Nc1cccc([As](=O)(O)O)c1`: inactive: -1.63%.
Regarding `COP(=O)(OC)N1CC1c1ccccc1` (stereo not drawn), the activation is inactive: -0.68%.
Next, `Cc1cc(SC(NC(=O)c2ccccc2)C(Cl)(Cl)Cl)nc(C(C)C)n1` (stereo not drawn): inactive: -0.67%; `CCCCOc1ccc(C(=O)NCC2(N3CCCCC3)CCCCC2)cc1OC`: inactive: 2.27%; `CCOC(=O)Nc1ccc([As](=O)(O)O)c(O)c1`: inactive: -0.04%.
Regarding `O=C(O)C(O)c1ccc(N(CCCl)CCCl)cc1` (stereo not drawn), the activation was inactive: 0.18%.
Consider `CC1CCNP(=O)(N(CCCl)CCCl)O1` (stereo not drawn), for which the activation is inactive: -1.74%.
Regarding `CCC(C)N(CC(C)C)C(=S)SC(NC(C)=O)C(Cl)(Cl)Cl` (stereo not drawn), the activation is inactive: -6.84%.
`O=C(OC1CN2CCC1CC2)c1cccc([N+](=O)[O-])c1` (stereo not drawn): the activation is inactive: 0.12%.
In the case of `CCOC(=O)c1ccc(NC(=O)C(C)(CCl)SC)cc1` (stereo not drawn), the activation was inactive: 3.08%.
`O=C(O)C(=O)c1ccc(N(CCCl)CCCl)cc1`: the activation was inactive: -0.2%.
In the case of `O=C(Nc1ccncc1[N+](=O)[O-])c1ccc([N+](=O)[O-])cc1[N+](=O)[O-]`, the activation is inactive: 3.89%.
In the case of `O=C(COc1ccccc1)OC1CN2CCC1CC2` (stereo not drawn), the activation was inactive: -0.56%.
Next, `COC(=O)C1(C)COP(=O)(N2CCCC2)OC1` (stereo not drawn): inactive: 3.55%; `COP1(=S)c2c(C)nn(CCC#N)c2N=C(c2ccc(F)cc2)N1C` (stereo not drawn): inactive: 5.85%.
On to `CN(C(=O)Cc1ccc(Cl)c(Cl)c1)C1CCCC[C@@H]1N1CCCC1` (stereo partly drawn), for which the activation is inactive: -7.1%.
As to `CC(C)/C=N\N=C(\N)N[N+](=O)[O-]`, the activation is inactive: 4.13%.
Regarding `CN(C(=O)Cc1ccc(Cl)c(Cl)c1)[C@@H]1CCCC[C@H]1N1CCCC1`, the activation is inactive: 2.18%.
For the molecule `CC1(CBr)Cn2c(nc3ccccc3c2=O)S1` (stereo not drawn), the activation was inactive: -0.83%.
The figure for `COc1ccccc1CNC(=O)COC(=O)C(O)(c1ccccc1)c1ccccc1` is inactive: 1.43%; for `CC(C)(C)C(=O)NC(Sc1ncccn1)C(Cl)(Cl)Cl` (stereo not drawn) it is inactive: -1.12%; for `O=P1(N(CCCl)CCCl)NCCC(C(F)(F)F)O1` (stereo not drawn) it is inactive: 3.88%.
For `Clc1n[nH]nc1-c1nn[nH][15n]1`, the activation is inactive: -1.82%.
Next, `CCOP(=O)(NC(=NC(C)c1ccccc1)NC(C)c1ccccc1)OCC` (stereo not drawn): inactive: -5.3%; `O=P1(Nc2ccccn2)COc2ccccc2OC1`: inactive: -0.87%; `CCC1=CC2Cc3nc4ccc(Cl)cc4c(N)c3C(C1)C2` (stereo not drawn): inactive: -29.8%.
Next, `CN(CCCl)Cc1cc(Cl)c(NC2=NCCN2)c(Cl)c1`: inactive: 4.83%.
As to `CCOP(=O)(Nc1ccc(C)cn1)OCC`, the activation is inactive: 1.54%.
Consider `Nc1cccc([As](=O)(O)c2ccccc2)c1`, for which the activation is inactive: -1.25%.
The figure for `O=P1(Nc2ccc(Br)cn2)COc2ccccc2OC1` is inactive: -1.2%.
Next, `NS(=O)(=O)c1cccc(NC(=O)COC(=O)C(O)(c2ccccc2)c2ccccc2)c1`: inactive: 3.02%; `O=[As](O)(c1cccs1)c1cccs1`: inactive: -2.23%.
Next, `Cc1ccc(OCC(=O)OC2CN3CCC2CC3)cc1` (stereo not drawn): inactive: 0.5%; `Cc1ccc(S(=O)(=O)N(CCCN)CCCc2c(C)nc(N)[nH]c2=O)cc1`: inactive: -0.51%.
Take `O=P1(Nc2ncccn2)COc2ccccc2OC1`: the activation is inactive: -1.5%.
The figure for `CN(C)C1(CNC(=O)c2ccc(S(C)(=O)=O)cc2)CCCCC1` is inactive: 2.03%.
Regarding `CCCC1OP(=O)(Nc2ccccc2)OCC1CC` (stereo not drawn), the activation is inactive: 1.11%.
Next, `O=C(/C=C/c1ccccc1)OC1CN2CCC1CC2` (stereo not drawn): inactive: -0.18%; `CC1CCC(C(C)C)C(OP(=O)(Nc2ccccn2)c2ccccc2)C1` (stereo not drawn): inactive: -10.7%; `Cc1ccc(C(=O)OC2CN3CCC2CC3)cc1` (stereo not drawn): inactive: -10.9%.
Turning to `Cc1nn(-c2ccccc2)c2c1P(=O)(N1CCOCC1)N(C)C(c1ccccc1)=N2` (stereo not drawn), the activation is inactive: -0.38%.
The figure for `CN(C(=O)Cc1ccccc1)[C@@H]1CC[C@]2(CCCO2)C[C@H]1N1CCCC1` is inactive: 1.64%.
Next, `CCOP1(=S)c2c(C)nn(CCC#N)c2N=C(c2ccc(F)cc2)N1C` (stereo not drawn): inactive: -1.77%; `N#CCCN(C(=O)COC(=O)C(O)(c1ccccc1)c1ccccc1)c1ccc(F)cc1`: inactive: -0.55%; `CN(C(=O)Cc1ccc(Cl)c(Cl)c1)[C@H]1CC[C@@]2(CCCO2)C[C@@H]1N1CCCC1`: inactive: 1.04%.
With `CN(C)C(=O)c1cc([N+](=O)[O-])cc2c1-c1c(cc([N+](=O)[O-])cc1[N+](=O)[O-])C2=O`, the activation was inactive: -19.7%.
Turning to `O=[N+]([O-])c1ccc2c(c1)nnn2O`, the activation is inactive: -2.01%.
The figure for `NC(=O)Nc1ccc([As](=O)(O)O)cc1` is inactive: 2.32%; for `Nc1ccccc1[As](=O)(O)c1ccccc1` it is inactive: 1.92%.
As for `O=C(O)COc1ccc([As](=O)(O)O)cc1[N+](=O)[O-]`, the activation was inactive: 0%.
Next, `O=P(Nc1nccs1)(Oc1ccccc1)Oc1ccccc1`: inactive: -5.51%; `CCOP1(=S)c2c(C)nn(CCC#N)c2N=C(c2ccccc2F)N1C` (stereo not drawn): inactive: -5.64%.
In the case of `CCOP(=O)(Nc1cccc2ccccc12)OCC`, the activation was inactive: -2.31%.
For the molecule `COc1cc(C2NCCC3(OCCO3)C2(C)C)cc(OC)c1OC` (stereo not drawn), the activation was inactive: 1.1%.
For `Nc1cccc2c([As](=O)(O)O)cccc12`, the activation is inactive: -1.34%.
The figure for `Cc1ccc(NCCc2c([N+](=O)[O-])cc([N+](=O)[O-])cc2[N+](=O)[O-])cc1` is inactive: -5.99%; for `CCCOP(=S)(Nc1nc(N)cc(=O)[nH]1)OCCC` it is inactive: 6.79%; for `O=[As](O)(c1cccc(O)c1)c1cccc(O)c1` it is inactive: 0.63%.
Next, `Cc1cccc(OCC(=O)OC2CN3CCC2CC3)c1` (stereo not drawn): inactive: -5.27%; `O=C(OC1CN2CCC1CC2)c1ccc(Cl)cc1` (stereo not drawn): inactive: -0.77%.
As to `CS(=O)(=O)c1ccc(Cl)c(NC(=O)COC(=O)C(O)(c2ccccc2)c2ccccc2)c1`, the activation is inactive: 0.92%.
As to `COc1cc(C(=O)NCC2(N3CCOCC3)CCCCC2)cc(Cl)c1OC(C)C`, the activation is inactive: 0.25%.
The figure for `O=[As](O)(O)c1cccnc1` is inactive: -5.63%.
